Experiments:
[1] = UV photostability, irradiation at 254 nm, 1H NMR; settings: 70 h UV irradiation at 254 nm
[2] = molecular target: human FXR alpha ligand binding domain (Homo sapiens, UniProt Q96RI1); assay: FRET activity assay (ligand mediated cofactor peptide interaction, LANCE); assay type: biochemical; settings: read-out: FRET EC50; potency range
[3] = molecular target: FXR ligand binding domain (Homo sapiens, UniProt Q96RI1); assay: Mammalian One Hybrid (M1H) Gal4 reporter assay in HEK293 cells; assay type: cell-based; settings: read-out: Gal4 (M1H) EC50, potency range

Sequences of proteins named here, by UniProt entry; tags and fusion partners are left off. Residues count along the entry.
UniProt Q96RI1, 187-472 isoform 2 limits assumed: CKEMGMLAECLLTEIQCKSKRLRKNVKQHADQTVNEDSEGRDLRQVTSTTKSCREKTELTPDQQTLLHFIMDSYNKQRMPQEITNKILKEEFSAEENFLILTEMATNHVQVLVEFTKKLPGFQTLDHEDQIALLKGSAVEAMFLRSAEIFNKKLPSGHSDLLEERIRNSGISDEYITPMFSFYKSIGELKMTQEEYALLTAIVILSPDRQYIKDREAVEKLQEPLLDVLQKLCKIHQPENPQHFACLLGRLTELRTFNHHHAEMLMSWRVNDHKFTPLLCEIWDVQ

O=C(O)c1cccc(/C=C/c2ccc(OCc3c(-c4c(Cl)cccc4Cl)noc3C3CC3)cc2Cl)c1
behaviour in 1H NMR spectrum after prolonged UV irradiation [1]: major changes | compound still present in the mixture (1H NMR integration) ([1]; deuterated ethanol): 45% | EC50 [2]: 10 to 100 nM | EC50 [3]: 10 to 100 nM

Source: patent publication US8952042B2, “FXR (NR1H4) binding and activity modulating compounds” (Phenex Pharmaceuticals AG, priority 2009, dated 2015)
